Experimental data as given in US8762074B2, “Optimizing culture medium for CD34<+> hematopoietic cell expansion” (Sino-Cell Technologies, priority 2004, dated 2014).

Columns and labels:
[1] = test system: CD34<+> hematopoietic cells; experiment: Ex vivo expansion culture of UCB CD133+/CD34+ cells, CD34+ cell growth by flow cytometry (cell density at day 7); format: cell-based, human
Description: (§1) The UCB of full-termed healthy newborns, included uneventful vaginal births or cesarean sections, was harvested with a standard 250-ml blood bag containing citrate-phosphate-dextrose-adenine anticoagulant (Terumo, Shibuya-ku, Tokyo, Japan).
Buffy coat cells were obtained from UCB samples by centrifugation (700×g for 20 min), and were diluted with an equal volume of wash buffer (Dulbecco's phosphate buffered saline (D-PBS, Sigma, St. Louis, Mo.) contain 2 mM EDTA (Sigma)). Then the Buffy coat cells were layered onto Ficoll-Paque (ρ=1.077 g/ml, Amersham Biosciences, Uppsala, Sweden) density gradients to deplete red blood cells (RBC) (700×g for 40 min). The mononuclear cell (MNC) interface was collected, diluted into four volumes of wash buffer, and centrifuged to pellet the cells (700×g for 10 min). The MNC pellet was washed twice and resuspended in MACS buffer (D-PBS contained 0.5% bovine serum albumin (BSA, Sigma) and 2 mM EDTA) for CD133<+> cell purification. CD133<+> cord blood cells were isolated using the Miltenyi VarioMACS device (Miltenyi Biotec, Bergisch Gladbach, Germany), according to the manufacturer's instruction. Briefly, UCB MNC were incubated for 30 min at 4° C. with human IgG to block the Fc receptors and mouse monoclonal antibody to human CD133 microbead (Miltenyi Biotec). Labeled cells were applied to magnetic column (LS column, Miltenyi Biotec). Then, unbound cells were washed out, and CD133<+> cells were eluted from the column with MACS buffer. To improve the purity of the CD133+ (or CD34<+>) cells, a secondary purification cycle was performed with the same way. Then the cells were sampled for CD34<+> analysis to determine yield, purity and viability and assayed for colony-forming cells (CFC) as day 0 for control. To expand cells, CD133<+> cells were seeded at a concentration of 5×10^4 cells/ml in 24-well plate (1 ml per well, Falcon, N.J.) with variable serum substitutes, cytokines and medium according to experiment design. After 7 days, the cells were analyzed to compare with the day 0 control (all experiments were repeated at least four times).
Cells before and after expanding culture were analyzed by two-color flow cytometry on a FACSCaliber analyzer (Becton-Dickinson, NJ, USA). About 1×10^6 cells were stained with FITC-conjugated anti-human CD45 and Peconjugated anti-human CD34, and gated for CD45<+>CD34<+> cells with low side scatter, according to the CD34 enumeration protocols developed by the International Society of Hematotherapy and Graft Engineering (ISHAGE) (Sutherland Dr, et al, J Hematother 1996; 5:231-8). A replicate sample was stained with FITC-antiCD45 and PE-mouse IgG1 as an isotype control to ensure specificity.
Two-level factorial design followed the method of steepest ascent was carried out to find the optimal concentration of serum substitutes and cytokines for CD34<+> cells expansion. Fractional and full factorial design data were regressed by SPSS software (SPSS Inc. In: SPSS for Windows, base system user's guide. Release 6.0. Chicago, Ill.: SPSS Inc.; 1993. p. 235-47) to obtain the first order polynomial. Its statistical significance was determined by an F-test and the significance of the regression coefficients was analyzed by a t-test. The polynomial takes the form of White blood cell or CD34<+> cell (cells/ml)=β0+βiXi (1) where β's are the regression constants and X's are coded variables for the tested additives.

WBC = experiment: Ex vivo expansion culture of UCB CD133+/CD34+ cells, WBC growth (cell density at day 7); format: cell-based, human
Description: as §1
Buffy coat cells were obtained from UCB samples by centrifugation (700×g for 20 min), and were diluted with an equal volume of wash buffer (Dulbecco's phosphate buffered saline (D-PBS, Sigma, St. Louis, Mo.) contain 2 mM EDTA (Sigma)). Then the Buffy coat cells were layered onto Ficoll-Paque (ρ=1.077 g/ml, Amersham Biosciences, Uppsala, Sweden) density gradients to deplete red blood cells (RBC) (700×g for 40 min). The mononuclear cell (MNC) interface was collected, diluted into four volumes of wash buffer, and centrifuged to pellet the cells (700×g for 10 min). […] After 7 days, the cells were analyzed to compare with the day 0 control (all experiments were repeated at least four times).
Two-level factorial design followed the method of steepest ascent was carried out to find the optimal concentration of serum substitutes and cytokines for CD34<+> cells expansion. […] Its statistical significance was determined by an F-test and the significance of the regression coefficients was analyzed by a t-test. […]

[2] = from Table 5, serum-containing medium, +1 = 10 ng/ml

B1: interleukin (IL)-3 (protein, UniProt P08700 20-152, looked up)
Interleukin-3: APMTQTTPLKTSWVNCSNMIDEIITHLKQPPLPLLDFNNLNGEDQDILMENNLRRPNLEAFNRAVKSLQNASAIESILKNLLPCLPLATAAPTRHPIHIKDGDWNEFRRKLTFYLKTLENAQAQQTTLSLAIF
notes: recombinant human growth factor
For B1, the “effect on WBC and CD34<+> cell growth” value ([1]; 2^9−5 fractional factorial design in IMDM containing BIT2 (data not shown)) was “could facilitate WBC and CD34<+> cell growth”, the “regression coefficient of first-order model, Eq. (5)” value [1, 2] was 0.100 10^6 CD34<+> cells/ml and the “effect on CD34<+> cell growth/expansion” value ([1]; per Eq. (3), serum-containing IMDM) was “can stimulate CD34<+> cell expansion”. For the same molecule, the “effect on WBC and CD34<+> cell growth” value ([1]; per Eqs. (4) and (5), serum-containing medium) was “facilitated WBC and CD34<+> cell growth”, the “effect on WBC and CD34<+> cell growth” value ([1]; per Eqs. (10) and (11), serum-free IMDM + BIT2) was “positively affected WBC and CD34<+> cell growth” and the “regression coefficient of first-order model, Eq. (4)” value (WBC; [2]) was 0.313 10^6 WBC cells/ml. For the same molecule, the “effect on WBC growth” value (WBC; per Eq. (2), serum-containing IMDM) was “stronger effects than the other cytokines”.
